The data set deals with the molecule itself. Put plainly: crystal structure; (NIA)2 complex, 2.75 Å, space group R32; crystals from 100 mM MES pH 6.5, 0.3 M ammonium acetate, 20 mM calcium acetate, 20 mM CaCl2, 19% isopropanol, 12 °C.

One protein from article PMC5668364, “Structure and functional dynamics of the mitochondrial Fe/S cluster synthesis complex” (Nature Communications, 2017) can be followed below.

B1: human ISD11, full length, no tag (natural protein, UniProt Q9HD34 1-91, looked up)
chain: MAASSRAQVLSLYRAMLRESKRFSAYNYRTYAVRRIRDAFRENKNVKDPVEIQTLVNKAKRDLGVIRRQVHIGQLYSTDKLIIENRDMPRT
notes: human ISD11 (LYRM4), full length, plasmid pZM4; also called LYRM4; I of (NIA)2 and (NIAU)2; source: E. coli One Shot BL21 Star (DE3), co-expressed with NFS1, co-purified (Ni-NTA)
Take B1: the binding result was “binds”.
